Laboratory results: patent US11236106B2, “Cycloalkane-1,3-diamine derivative” (Daiichi Sankyo Company, Limited, priority 2018, dated 2022)
Structures can show the parent of a compound that is named as a salt. Where two headings read alike, the source gives them in different places.

Key:
Assay in all cases: cells
Details in all cases: Homo sapiens
K562 cells = test system: K562 cells
MV-4-11 cells = test system: MV-4-11 cells
MOLM-13 cells = test system: MOLM-13 cells
[1] = K562, 72 h, read-out: GI50 (μM) Day3 K562
[2] = K562, 168 h, read-out: GI50 (μM) Day7 K562
[3] = MV4-11, 72 h, read-out: GI50 (μM) Day3 MV4;11, MV4;11, Day3
[4] = MV4-11, 168 h, read-out: GI50 (μM) Day7 MV4;11, MV4;11, Day7
[5] = MOLM-13, 72 h, read-out: GI50 (μM) Day3 MOLM-13, MOLM-13, Day3
[6] = MOLM-13, 168 h, read-out: GI50 (μM) Day7 MOLM-13, MOLM-13, Day7
[7] = K562, 72 h, read-out: GI50, cell growth inhibitory activity, K562, day 3
[8] = K562, 168 h, read-out: GI50, cell growth inhibitory activity, K562, day 7
[9] = MV4-11, 72 h, read-out: GI50, cell growth inhibitory activity, MV-4-11, day 3, MV-4-11 cells, cultured 3 days, assigned by order and values
[10] = MV4-11, 168 h, read-out: GI50, cell growth inhibitory activity, MV-4-11, day 7, MV-4-11 cells, cultured 7 days, assigned by order and values
[11] = MOLM-13, 72 h, read-out: GI50, cell growth inhibitory activity, MOLM-13, day 3, MOLM-13 cells, cultured 3 days, assigned by order and values
[12] = MOLM-13, 168 h, read-out: GI50, cell growth inhibitory activity, MOLM-13, day 7, MOLM-13 cells, cultured 7 days, assigned by order and values

Structure (SMILES) | GI50 (K562 cells; [1]) [µM] | GI50 (K562 cells; [2]) [µM] | GI50 (MV-4-11 cells; [3]) [µM] | GI50 (MV-4-11 cells; [4]) [µM] | GI50 (MOLM-13 cells; [5]) [µM] | GI50 (MOLM-13 cells; [6]) [µM] | GI50 (K562 cells; [7]) [µM] | GI50 (K562 cells; [8]) [µM] | GI50 (MV-4-11 cells; [9]) [µM] | GI50 (MV-4-11 cells; [10]) [µM] | GI50 (MOLM-13 cells; [11]) [µM] | GI50 (MOLM-13 cells; [12]) [µM]
C=CC(=O)Nc1cccc(Nc2ccc(CN[C@H]3CC[C@@H](N(C)c4nc(NC)nc5sc(CC(F)(F)F)cc45)C3)cc2)c1 [Example 55, N-{3-[4-({[(1S,3R)-3{methyl[2-(methylamino)-6-(2,2,2-trifluoroethyl)thieno[2,3-d]pyrimidin-4-yl]amino}cyclopentyl]amino}methyl)anilino]phenyl}prop-2-enamide hydrochloride] | 1.9 | 1.32 | 0.149 | 0.0895 | 0.614 | 0.221 | – | – | – | – | – | –
COc1cc(-c2ccc(CN[C@H]3CC[C@@H](N(C)c4ncnc5sc(CC(F)(F)F)cc45)C3)cc2)nnc1OC [Example 95, (1R,3S)-N^3-{[4-(5,6-dimethoxypyridazin-3-yl)phenyl]methyl}-N^1-methyl-N^1-[6-(2,2,2-(trifluoroethyl)thieno[2,3-d]pyrimidin-4-yl]cyclopentane-1,3-diamine hydrochloride] | – | – | – | – | – | – | 5.08 | 1.78 | 0.0454 | 0.0239 | 1.1 | 0.0668
COc1nc(N(C)[C@H]2C[C@@H](NCc3ccc(-c4nn(C(F)F)c(=O)cc4OC)cc3)C[C@H]2O)c2cc(CC(F)(F)F)sc2n1 [Example 111, 2-(difluoromethyl)-6-[4-({[(1R,3R,4S)-3-hydroxy-4-{[2-methoxy-6-(2,2,2-trifluoroethyl)thieno[2,3-d]pyrimidin-4-yl](methyl)amino}cyclopentyl]amino}methyl)phenyl]-5-methoxypyridazin-3(2H)-one hydrochloride] | – | – | – | – | – | – | – | 1.2 | – | 0.634 | – | 0.751
COc1nc(N(C)[C@H]2C[C@@H](NCc3ccc(-c4cc(OC)c(Cl)nn4)cc3)C[C@H]2O)c2cc(CC(F)(F)F)sc2n1 [Example 90, (1R,2S,4R)-4-({[4-(6-chloro-5methoxypyridazin-3-yl)phenyl]methyl}amino)-2-{[2-methoxy-6-(2,2,2-trifluoroethyl)thieno[2,3-d]pyrimidin-4-yl](methyl)amino}cyclopentan1-ol hydrochloride] | – | – | – | – | – | – | 0.75 | 0.636 | < 0.0195 | < 0.0195 | 0.324 | 0.0364
O=C1CCCN1Cc1ccc(CN[C@H]2CCC[C@@H](Nc3ncnc4sc(CC(F)(F)F)cc34)C2)cc1 [Example 38, 1-{[4-({[(1S,3R)-3-{[6-(2,2,2-trifluoroethyl)thieno[2,3-d]pyrimidin-4-yl[amino}cyclohexy]amino}methyl)phenyl]methyl}pyrrolidin-2-one hydrochloride] | > 10 | – | 6.09 | – | > 10 | – | – | – | – | – | – | –
CN(c1ncnc2sc(CC(F)(F)F)cc12)[C@@H]1CC[C@H](NCc2ccc(-c3ccc(=O)[nH]c3)cc2)C1 [Example 11, 5-[4-({[(1S,3R)-3-{methyl[6-(2,2,2-trifluoroethyl)thieno[2,3-d]pyrimidin-4-yl]amino}cyclopentyl]amino}methyl)phenyl]pyridin-2(1H)-one Hydrochloride] | 6.66 | 3.82 | 1.3 | 0.711 | 3.28 | 1.19 | – | – | – | – | – | –
COc1nc(N(C)[C@H]2C[C@@H](NCc3ccc(-c4cnc(S(C)(=O)=O)c(OC)c4)cc3)C[C@H]2O)c2cc(CC(F)(F)F)sc2n1 [Example 94, (1R,2S,4R)-4-[({4-[6-(methanesulfonyl)-5-methoxypyridin-3-yl]phenyl}methyl)amino]-2-{[2-methoxy-6-(2,2,2-trifluoroethyl)thieno[2,3-d]pyrimidin-4-yl](methyl)amino}cyclopentan-1-ol hydrochloride] | – | – | – | – | – | – | 5.04 | 2.82 | 0.143 | 0.0751 | 1.54 | 0.227
COc1cc(-c2ccc(CN[C@H]3C[C@@H](O)[C@@H](N(C)c4ncnc5sc(CC(F)(F)F)cc45)C3)cc2)nnc1Oc1cccnc1 [Example 107, (1R,2S,4R)-4-{[(4-{5-methoxy-6-[(pyridin-3-yl)oxy]pyridazin-3-yl}phenyl)methyl]amino}-2-{methyl[6-(2,2,2-trifluoroethyl)thieno[2,3-d]pyrimidin-4-yl]amino}cyclopentan-1-ol hydrochloride] | – | – | – | – | – | – | – | 4.91 | – | 0.027 | – | 0.0647
CN(c1ncnc2sc(CC(F)(F)F)cc12)[C@H]1C[C@@H](NCc2ccc(-c3cnc(Cl)c4cc[nH]c34)cc2)C[C@H]1O [Example 70, (1R,2S,4R)-4-({[4-(4-chloro-1H-pyrrolo[3,2-c]pyridin-7-yl)phenyl]methyl}amino)-2-{methyl[6-(2,2,2-trifluoroethyl)thieno[2,3-d]pyrimidin-4-yl]amino}cyclopentan-1-ol hydrochloride] | – | – | – | – | – | – | 2.57 | 2.53 | 0.0673 | 0.0351 | 0.948 | 0.111
CNc1nc(N(C)[C@H]2C[C@@H](NCc3ccc(-c4cc(F)c(F)c(OC)c4)cc3)C[C@H]2O)c2cc(CC(F)(F)F)sc2n1 [Example 82, (1R,2S,4R)-4-{[(3′,4′-difluoro-5′-methoxy[1,1′-biphenyl]-4-yl)methyl]amino}-2-{methyl[2-(methylamino)-6-(2,2,2-trifluoroethyl)thieno[2,3-d]pyrimidin-4-yl]amino}cyclopentan-1-ol hydrochloride] | – | – | – | – | – | – | 1.41 | 1.33 | 0.112 | 0.0505 | 0.521 | 0.177
COc1nc(N(C)[C@H]2C[C@@H](NCc3cccc(Nc4cccnc4)c3)C[C@H]2O)c2cc(CC(F)(F)F)sc2n1 [Example 120, (1R,2S,4R)-2-{[2-methoxy-6-(2,2,2-trifluoroethyl)thieno[2,3-d]pyrimidin-4-yl](methyl)amino}-4-[({3-[(pyridin-3-yl)amino]phenyl}methyl)amino]cyclopentan-1-ol hydrochloride] | – | – | – | – | – | – | – | 2.16 | – | 0.225 | – | 0.729
CN(c1ncnc2sc(CC(F)(F)F)cc12)[C@@H]1CC[C@H](NCc2ccc(-c3ccc(-c4ccc(Cl)nc4)nc3)cc2)C1 [Example 13, (1R,3S)—N^3-{[4-(6′-chloro[2,3′-bipyridine]-5-yl)phenyl]methyl}-N^1-methyl-N^1-[6-(2,2,2-trifluoroethyl)thieno[2,3-d]pyrimidin-4-yl]cyclopentane-1,3-diamine] | 2.16 | – | 0.273 | – | 1.01 | – | – | – | – | – | – | –
CN(c1ncnc2sc(CC(F)(F)F)cc12)[C@@H]1CC[C@H](NCc2ccc(Nc3cnn(C)c3)cc2)C1 [Example 12, (1R,3S)—N^1-methyl-N^3-({4-[(1-methyl-1H-pyrazol-4-yl)amino]phenyl}methyl)-N^1-[6-(2,2,2-trifluoroethyl)thieno[2,3-d]pyrimidin-4-yl]cyclopentane-1,3-diamine] | 6.72 | – | 0.702 | – | 2.72 | – | – | – | – | – | – | –
COc1cc(-c2ccc(CN[C@H]3C[C@@H](O)[C@@H](N(C)c4ncnc5sc(CC(F)(F)F)cc45)C3)c(F)c2)cnc1OC [Example 76, (1R,2S,4R)-4-({[4-(5,6-dimethoxypyridin-3-yl)-2-fluorophenyl]methyl}amino)-2-{methyl[6-(2,2,2-trifluoroethyl)thieno[2,3-d]pyrimidin-4-yl]amino}cyclopentan-1-ol hydrochloride] | – | – | – | – | – | – | 4.8 | 2.7 | 0.183 | 0.0963 | 1.7 | 0.268
COc1cnc(-c2ccc(CN[C@H]3C[C@@H](O)[C@@H](N(C)c4ncnc5sc(CC(F)(F)F)cc45)C3)cc2)nc1OC [Example 97, (1R,2S,4R)-4-({[4-(4,5-dimethoxypyrimidin-2-yl)phenyl]methyl}amino)-2-{methyl[6-(2,2,2-trifluoroethyl)thieno[2,3-d]pyrimidin-4-yl]amino}cyclopentan-1-ol hydrochloride] | – | – | – | – | – | – | 3.21 | 2.46 | 0.295 | 0.187 | 0.852 | 0.285
CNc1nc(N(C)[C@H]2C[C@@H](NCc3ccc(-c4ccc(F)c(OC)c4F)cc3)C[C@H]2O)c2cc(CC(F)(F)F)sc2n1 [Example 87, (1R,2S,4R)-4-{[(2′,4′-difluoro-3′-methoxy[1,1′-biphenyl]-4-yl)methyl]amino}-2-{methyl[2-(methylamino)-6-(2,2,2-trifluoroethyl)thieno[2,3-d]pyrimidin-4-yl]amino}cyclopentan-1-ol hydrochloride] | – | – | – | – | – | – | 1.76 | 1.23 | 0.165 | 0.114 | 0.803 | 0.423
COc1cc(-c2ccc(CN[C@H]3C[C@@H](O)[C@@H](N(C)c4ncnc5sc(CC(F)(F)F)cc45)C3)cc2)nnc1Cl [Example 84, (1R,2S,4R)-4-({[4-(6-chloro-5-methoxypyridazin-3-yl)phenyl]methyl}amino)-2-{methyl[6-(2,2,2-trifluoroethyl)thieno[2,3-d]pyrimidin-4-yl]amino}cyclopentan-1-ol hydrochloride] | – | – | – | – | – | – | 5.28 | 3.39 | 0.0235 | < 0.0195 | 0.652 | 0.0455
